Measurements: patent US7585639B1, “Methods for modulating ATP-binding cassette transmembrane reporter protein expression” (Trustees of Dartmouth College, priority 1999, dated 2009)

Legend:
Pgp [1] = test system: Pgp
GFP-Pgp = settings: MDR29 cells
Pgp [2] = settings: MDR29 cells, 48 hours after MMC
[3] = test system: Pgp-green fluorescent protein fusion protein; settings: MDCK, cited from earlier work

Compound: CO[C@@]12[C@H](COC(N)=O)C3=C(C(=O)C(C)=C(N)C3=O)N1C[C@@H]1N[C@@H]12 [MMC, mitomycin C]
- MDR1 mRNA and subsequent Pgp protein expression (Pgp [1]): significant decrease
- time at which Pgp protein levels were at their lowest (Pgp [1]): 48 to 84 h
- total and membrane Pgp (Pgp [1]): levels well below control
- total cellular Pgp levels (Pgp [1]): unchanged
- transient increase in membrane-associated Pgp (Pgp [1]): approximately two-fold
- Pgp levels relative to controls (GFP-Pgp; by 24 hours, remained low through 72 hours): approximately half
- initial increase in membrane GFP-Pgp (GFP-Pgp; single non-cytotoxic dose, 6-12 hours after treatment): two-fold
- daunorubicin accumulation (Pgp [2]): significant increase
- membrane levels of Pgp-GFP ([3]; 6-18 hours after treatment): increase
- membrane levels of Pgp-GFP relative to control ([3]; by 40 to 60 hours, then return to normal): half the control value
